Curated experimental data: vapor pressure values

From the experimental data distributed with OPERA 2.9.

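OPERA's authors assembled the values from existing databases and did not measure them anew. The files give a single number for a compound and property, which may rest on several reports. Conditions of the individual experiments are not part of the data. A value may pool stereoisomers or salt forms, and the file does not say which form was measured. Some entries may be limits or estimates that an upstream database listed as plain numbers.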

Vapor pressure is log10 of mmHg; the set covers 15 to 30 °C, mostly 20 to 25 °C.

log VP (log10 mmHg) | structure (SMILES)
-4.144 | O=C(O)CCC(=O)C(=O)O
-4.105 | Clc1cc(-c2ccccc2)cc(Cl)c1Cl
-0.718 | c1cn[nH]c1
-9.907 | Cc1cc(O)n2ncnc2n1
-7.888 | CCCCCCCC/C=C\CCCCCCCC(=O)NCC(C)O (stereo partly drawn)
-4.939 | C=CCCCCCCCCCCCCCCCCCCCCCC
0.82 | FC1(F)C(F)(F)C(F)(F)C2(F)C(F)(F)C(F)(F)C(F)(F)C(F)(F)C2(F)C1(F)F (stereo unspecified)
-13.16 | C[N+](C)(C)CCOP(=O)([O-])[O-].[Ca+2].[Cl-]
-9.639 | CCN(CC)c1ccc(C(=O)c2ccc(N(CC)CC)cc2)cc1
0.407 | COC(=O)C(C)O (stereo unspecified)
-2.745 | CCOC(=O)CC(CC(C)=O)C(=O)OCC (stereo unspecified)
-10.23 | Cl.N[C@@H](Cc1cnc[nH]1)C(=O)O
-12.45 | C[C@]12CCC(=O)C=C1C=C[C@@H]1[C@@H]2CC[C@@]2(C)[C@H]1CC[C@@]21CCC(=O)O1
-5.084 | NCCCN(CCO)CCO
-2.455 | COc1c(Cl)cc(Cl)c(OC)c1O
-0.274 | NCCOCCOCCN
-4.305 | Clc1cccc(-c2cc(Cl)c(Cl)cc2Cl)c1
-5.084 | O=C([O-])[C@H](O)[C@@H](O)C(=O)[O-].[NH4+].[NH4+]
-4.975 | Clc1cc(Cl)cc(-c2cc(Cl)c(Cl)cc2Cl)c1
-0.213 | C[Si]1(CCC(F)(F)F)O[Si](C)(CCC(F)(F)F)O[Si](C)(CCC(F)(F)F)O1 (stereo unspecified)
-8.862 | Cl.O=C(O)C1CCNCC1
-7 | S=c1sc2nc3ccccc3nc2s1
1.843 | FC(F)C(F)(F)COC(F)(F)C(F)(F)C(F)(F)F
-1.006 | C=CN1CCCC1=O

The 2 lowest values of log VP among the entries above:

structure (SMILES)	log VP (log10 mmHg)
C[N+](C)(C)CCOP(=O)([O-])[O-].[Ca+2].[Cl-]	-13.16
C[C@]12CCC(=O)C=C1C=C[C@@H]1[C@@H]2CC[C@@]2(C)[C@H]1CC[C@@]21CCC(=O)O1	-12.45